Test results: ChEMBL document CHEMBL1125721, “Highly selective kappa opioid analgesics. 4. Synthesis of some conformationally restricted naphthalene derivatives with high receptor affinity and selectivity” (1991)
Values joined by “and” are separate entries in the source; they are usually repeats but may differ in a detail not shown here. Equal values may be shown once.

The chains behind the UniProt entries cited, without tags or fusion partners.
UniProt P41144, whole entry: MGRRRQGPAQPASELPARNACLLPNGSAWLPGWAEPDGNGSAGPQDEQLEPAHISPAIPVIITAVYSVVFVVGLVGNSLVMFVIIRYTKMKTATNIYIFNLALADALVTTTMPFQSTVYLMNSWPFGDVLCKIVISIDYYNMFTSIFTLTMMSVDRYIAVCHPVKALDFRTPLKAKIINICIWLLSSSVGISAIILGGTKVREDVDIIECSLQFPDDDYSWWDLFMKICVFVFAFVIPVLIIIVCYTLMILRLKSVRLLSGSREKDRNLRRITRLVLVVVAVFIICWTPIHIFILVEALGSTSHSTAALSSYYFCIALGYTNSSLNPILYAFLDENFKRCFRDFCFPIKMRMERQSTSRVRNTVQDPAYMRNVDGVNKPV

Target: Kappa-type opioid receptor (Cavia porcellus) (UniProt P41144)
Test: Ratio measured as the Ki(kappa) to that of Ki(mu) values.

Row | Compound | Ratio
1 | CN(C(=O)C1CCc2c(Br)sc3cccc1c23)[C@H]1CCC2(CCCO2)C[C@@H]1N1CCCC1 (stereo partly drawn) | 16 and 14
2 | CC1c2cccc3cccc(c23)C1C(=O)N(C)[C@H]1CCC2(CCCO2)C[C@@H]1N1CCCC1 (stereo partly drawn) | 659
3 | CC(C(=O)N(C)[C@H]1CCCC[C@@H]1N1CCCC1)c1cccc2sccc12 (stereo partly drawn) | 14
